# Test results: patent US20260144890A1, “ANTIBODY DRUG CONJUGATE COMPRISING NMT INHIBITOR CONJUGATED TO AN ANTIBODY” (MyricX Pharma Limited, priority 2024, published 2026)
# By UniProt entry, the sequences of proteins in these tests, tags left out.
# UniProt P30419, whole entry: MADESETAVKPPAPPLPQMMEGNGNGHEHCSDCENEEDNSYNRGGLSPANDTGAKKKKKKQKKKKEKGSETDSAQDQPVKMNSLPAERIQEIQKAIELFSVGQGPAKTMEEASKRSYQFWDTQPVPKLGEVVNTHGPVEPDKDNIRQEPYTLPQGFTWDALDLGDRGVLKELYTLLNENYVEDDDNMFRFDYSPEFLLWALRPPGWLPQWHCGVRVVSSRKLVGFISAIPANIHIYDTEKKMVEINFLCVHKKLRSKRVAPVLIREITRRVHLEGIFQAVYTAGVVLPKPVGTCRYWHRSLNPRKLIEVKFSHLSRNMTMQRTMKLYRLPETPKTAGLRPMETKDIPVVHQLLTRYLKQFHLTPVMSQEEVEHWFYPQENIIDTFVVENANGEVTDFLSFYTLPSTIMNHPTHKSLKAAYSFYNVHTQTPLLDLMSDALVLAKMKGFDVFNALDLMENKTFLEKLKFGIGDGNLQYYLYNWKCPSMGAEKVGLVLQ
# Legend:
# SU-DHL-10 cell line = test: Cell cytotoxicity in SU-DHL-10 cell line (CTG, 72 h); conditions: read-out: SU-DHL-10 IC50; 72 h treatment
# HsNMT1 = HsNMT1 (Homo sapiens, UniProt P30419); test: HsNMT1 IC50 fluorescence-based assay (detection of CoA); type: biochemical; conditions: read-out: HsNMT1 IC50
structure (smiles),measurement,setting,value
CNCc1cnc2ccc(-c3ccc(F)c(F)c3OCCc3c(C(O)C(C)C)nn(C)c3C)cn12 (centres unmarked),IC50,SU-DHL-10 cell line,1 nM
same,IC50,HsNMT1,2 nM
